Source: paper PMC9144445, “Substrate-Based Design of Cytosolic Nucleotidase IIIB Inhibitors and Structural Insights into Inhibition Mechanism” (Pharmaceuticals, 2022)

The chains behind the UniProt entries cited, without tags or fusion partners. Where a name states a change or a piece, a line headed by the entry shows the natural chain unless it says otherwise.
UniProt Q969T7: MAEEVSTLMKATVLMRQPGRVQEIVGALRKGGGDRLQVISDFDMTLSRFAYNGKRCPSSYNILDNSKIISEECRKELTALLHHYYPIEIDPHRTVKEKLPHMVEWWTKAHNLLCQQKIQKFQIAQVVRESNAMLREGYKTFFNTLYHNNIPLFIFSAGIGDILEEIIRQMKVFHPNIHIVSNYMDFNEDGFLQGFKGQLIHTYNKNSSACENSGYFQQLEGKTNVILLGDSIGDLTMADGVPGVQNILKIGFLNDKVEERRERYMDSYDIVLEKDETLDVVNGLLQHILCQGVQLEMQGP

Legend:
human cN-IIIB [1] = biological target: T1, human cN-IIIB (Homo sapiens, UniProt Q969T7); test: Hydrolysis assay: susceptibility to hydrolysis by cN-IIIB (MGP assay); type: biochemical; details: cN-IIIB 80 nM, 45 min
human cN-IIIB [2] = biological target: T1, human cN-IIIB; details: m7GMP 100 μM + inhibitor 100 μM, cN-IIIB 80 nM, 45 min
[3] = library I, compound 100 μM, relative to m7GMP set to 100%

| SMILES | Susceptibility to hydrolysis (%) (human cN-IIIB [1]; [3]) | Susceptibility to hydrolysis (%) (human cN-IIIB [1]; library II, compound 100 µM) | Inhibition of cN-IIIB activity, first library (in words) (human cN-IIIB [2]) |
| --- | --- | --- | --- |
| C[n+]1cn([C@@H]2O[C@H](COP(=O)([O-])OP(=O)(O)F)[C@@H](O)[C@H]2O)c2nc(N)[nH]c(=O)c21 | 0.0% |  |  |
| Nc1nc2c(c(=O)[nH]1)[n+](Cc1ccccc1)cn2[C@@H]1O[C@H](COP(=O)([O-])OP(=O)(O)F)[C@@H](O)[C@H]1O |  | 0.0% |  |
| Nc1nc2c(c(=O)[nH]1)[n+](Cc1ccccc1)cn2[C@@H]1O[C@H](COP(=O)([O-])F)[C@@H](O)[C@H]1O |  | 0.0% |  |
| C[n+]1cn([C@@H]2O[C@H](COP(=O)([O-])F)[C@@H](O)[C@H]2O)c2nc(N)[nH]c(=O)c21 | 0.0% | 0.0% | inhibited cN-IIIB to some extent |
